Test results as given in patent US20150202287A1, “COMBINATION THERAPIES COMPRISING ANTI-ERBB3 AGENTS” (Merrimack Pharmaceuticals, Inc., priority 2012, published 2015).

What was measured:
Assay type in all cases: cell-based
BT474-M3 cells [1] = assay: Spheroid in vitro tumor model assay; details: dose range
BT474-M3-Aro cells = assay: Aromatase-overexpressing BT474-M3 proliferation assay (WST-1); details: androstenedione (A4) 200 nM and heregulin 2 nM, three days; ratio 10:20:1 MM-111 to letrozole to lapatinib
Description: After overnight incubation, indicated treatments were introduced in the presence of androstenedione (A-4; 200 nM) and heregulin (HRG; 2 nM). […] Cell viability in the presence of 5% charcoal-stripped FBS was set as control (100%).
Androstenedione is a steroid hormone that is converted to estrogen by aromatase.

phospho-ErbB3 (pErbB3) = assay: Cell signaling assay, pErbB3 ELISA, BT474-M3
Description: (§1) Cell lysates are probed for phospho-ErbB3 (pErbB3), and phospho-AKT (pAKT) by ELISA as described previously (Schoeberl et al, 2009) Inhibitor IC50 values are calculated by fitting dose-response data to a 4-parameter sigmoidal curve (GraphPad Prism®, GraphPad Software, Inc., La Jolla, Calif.).
Model-generated dose-response curves overlay the experimental data (FIG. 7a). […] Untreated and heregulin-stimulated cells were probed for pErbB3 and pAKT and the IC50 was calculated (FIG. 7b).
(§2) CRL-1504®), cells were incubated with serial dilutions of either inhibitor for 15 minutes, 1 hour, 4 hours, and 24 hours followed by stimulation with 5 nM heregulin for 10 min Amounts of pAKT and pErbB3 were measured by ELISA essentially as described.

BT-474-M3 cells = assay: T-DM1 and heregulin dose matrix cell viability, BT-474-M3; details: T-DM1 0 μg/ml, with MM-111 1 μM, 72 h
BT474-M3 cells [2] = assay: Apoptosis assay (Annexin V/PI FACS) in spheroids; details: MM-111 100 nM, lapatinib 33 nM, 72 hours
phospho-AKT (pAKT) = assay: Cell signaling assay, pAKT ELISA, BT474-M3; details: BT474-M3 cells, stimulation with 5 nM heregulin for 10 min; read-out: IC50, reduction of pAKT levels
Description: as §1, §2

Compound: C[C@]12CC[C@@H]3c4ccc(O)cc4C[C@@H](CCCCCCCCC[S+]([O-])CCCC(F)(F)C(F)(F)F)[C@H]3[C@@H]1CC[C@@H]2O (stereo partly drawn) [fulvestrant, reference compound]
- spheroid growth (BT474-M3 cells [1]; dual ligand (estrogen and heregulin) stimulated): inhibited spheroid growth
- spheroid growth (BT474-M3 cells [1]; estrogen-stimulated, six days): showed inhibitory effects on spheroid growth
- spheroid growth (BT474-M3 cells [1]; heregulin (HRG)-stimulated): did not inhibit heregulin stimulated spheroid growth

Compound: CS(=O)(=O)CCNCc1ccc(-c2ccc3ncnc(Nc4ccc(OCc5cccc(F)c5)c(Cl)c4)c3c2)o1 [lapatinib]
- cell growth inhibition (BT474-M3-Aro cells): did not result in growth inhibition except at high concentrations
- inhibition of heregulin-activated signaling (pErbB3 and pAKT) (phospho-ErbB3 (pErbB3); BT474-M3, 5 nM heregulin 10 min vs unstimulated): not an effective inhibitor of heregulin-activated signaling

Compound: N#Cc1ccc(C(c2ccc(C#N)cc2)n2cncn2)cc1 [letrozole]
- cell growth inhibition (BT474-M3-Aro cells): did not result in significant inhibition of spheroid cell growth

Compound: MM-111
- cell viability (BT-474-M3 cells; HRG 0 nM): 100.0001 % of control
- cell viability (BT-474-M3 cells; HRG 0.313 nM): 116.4349 % of control
- cell viability (BT-474-M3 cells; HRG 0.625 nM): 123.4726 % of control
- cell viability (BT-474-M3 cells; HRG 1.25 nM): 132.3855 % of control
- cell viability (BT-474-M3 cells; HRG 2.5 nM): 131.572 % of control
- cell viability (BT-474-M3 cells; HRG 5 nM): 146.0121 % of control
- cell viability (BT-474-M3 cells; HRG 10 nM): 157.2453 % of control
- total apoptotic cells (BT474-M3 cells [2]): about 20%
- cell growth inhibition (BT474-M3-Aro cells): inhibited cell proliferation to a similar extent
- spheroid growth (BT474-M3 cells [1]; estrogen-stimulated, six days): showed inhibitory effects on spheroid growth
- IC50 (phospho-AKT (pAKT)): 10 nM
- IC50 (phospho-ErbB3 (pErbB3); BT474-M3 cells, stimulation with 5 nM heregulin for 10 min, read-out: IC50, reduction of pErbB3 levels): 3 nM
